Results on 24 compounds are retold here after PubChem BioAssay AID2130 (The Scripps Research Institute Molecular Screening Center, 2009).

By UniProt entry, the sequences of proteins in these tests, tags left out.
UniProt Q9Y570, whole entry: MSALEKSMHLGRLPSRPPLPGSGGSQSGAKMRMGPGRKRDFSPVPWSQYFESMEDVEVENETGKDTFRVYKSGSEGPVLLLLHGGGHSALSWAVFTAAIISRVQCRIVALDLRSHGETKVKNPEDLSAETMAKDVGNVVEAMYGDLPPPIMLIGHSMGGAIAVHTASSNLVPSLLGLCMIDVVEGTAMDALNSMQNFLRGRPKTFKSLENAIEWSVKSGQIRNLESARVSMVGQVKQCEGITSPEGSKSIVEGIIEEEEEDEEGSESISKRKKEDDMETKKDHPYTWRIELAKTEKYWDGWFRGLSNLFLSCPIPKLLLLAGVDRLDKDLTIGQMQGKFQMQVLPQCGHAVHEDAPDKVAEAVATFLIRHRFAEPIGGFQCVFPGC

The list shows a part of the results, in another mix than the full data. Some tests of the compounds listed are not included; inactive here does not mean inactive elsewhere. The source made the active and inactive calls.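 Rule for the calls: active = inhibition above the campaign mean of all compounds plus 3 SD (cut at about 26% in these data); inactive = the rest.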

Broadly, the inhibition is the drop in the measured response relative to a control, in per cent.

The target of this assay is Protein phosphatase methylesterase 1 (Homo sapiens) (UniProt Q9Y570). Description: human PME-1 methylesterase blockers – biochemical, fluorescence polarization, FP-Rh probe, HTS, primary screen (AID 2130).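 Note: competitive labeling of PME-1 active site by serine hydrolase directed probe; 0% = PME-1 with DMSO and 100% = wells lacking PME-1 enzyme; inhibitors block probe labeling so polarization falls and inhibition rises.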 As to conditions: recombinant PME-1, FP-Rh probe fluorescence polarization; at 5.9 µM; stronger effect = higher value. For orientation: In fluorescence polarisation assays a small probe gives low polarisation when free and higher when bound to something large.
For `CC(C)N1C(=O)CC2(CCN(CCOC(=O)C(O)(c3ccccc3)c3ccccc3)CC2)C1=O`, the inhibition is inactive: 4.09%.

Regarding `CCN(CC)CC(C)C(C)OC(=O)C(O)(c1ccccc1)c1ccccc1` (centres undefined), the inhibition was inactive: 7.77%.

As to `COc1cc(SC)ccc1C(=O)NCC1(N(C)C)CCCCC1`, the inhibition was inactive: -3.4%.

Take `Cc1ccc(C(=O)NCC2(N3CCCCC3)CCCCC2)cc1`: the inhibition was inactive: -6.03%.

For `O=C(NCC1(N2CCCCC2)CCCCC1)c1cc([N+](=O)[O-])ccc1Cl`, the inhibition is inactive: -4.89%.

Regarding `CN1[C@@H]2CC[C@H]1CC(OC(=O)C(O)(c1ccccc1)c1ccccc1)C2` (some centres undefined), the inhibition is inactive: 3.09%.

Turning to `C=CCN1CCN(CCOC(=O)C(O)(c2ccccc2)c2ccccc2)CC1`, the inhibition is inactive: 2.68%.

On to `O=C(NCC1(N2CCCCC2)CCCCC1)c1cc(F)c(F)cc1Cl`, for which the inhibition is inactive: -0.66%.

In the case of `CCN1CCCC(OC(=O)C2(O)c3ccccc3C=Cc3ccccc32)C1` (centres undefined), the inhibition was inactive: -0.77%.

On to `Cc1cc(C(=O)NCC2(N3CCCCC3)CCCCC2)ccc1[N+](=O)[O-]`, for which the inhibition was inactive: 4.13%.

For the compound `O=C(NCC1(N2CCCCC2)CCCCC1)c1cccc(Br)c1`, the inhibition is inactive: 8.57%.

As to `COc1ccc(C(=O)NCC2(N(C)C)CCCCC2)cc1`, the inhibition is inactive: -8.17%.

Consider `Cc1ccccc1C(=O)NCC1(N2CCCCC2)CCCCC1`, for which the inhibition is inactive: 0.77%.

On to `CN(C)c1ccc(C(=O)NCC2(N(C)C)CCCCC2)cc1`, for which the inhibition is inactive: 3.06%.

For `CN(C)C1CCCC1OC(=O)C(O)(c1ccccc1)c1ccccc1` (centres undefined), the inhibition is inactive: 3.5%.

Take `COc1cccc(C(=O)NCC2(N3CCCCC3)CCCCC2)c1`: the inhibition is inactive: 0.04%.

Turning to `COc1ccc(Cl)cc1C(=O)NCC1(N(C)C)CCCCC1`, the inhibition is inactive: 3.81%.

With `O=C(NCC1(N2CCCCC2)CCCCC1)c1cccc(Cl)c1`, the inhibition is inactive: 0.2%.

Take `CN(C)C1(CNC(=O)c2ccc(Br)cc2)CCCCC1`: the inhibition is inactive: -0.37%.

For `COc1cc(C(=O)NCC2(N(C)C)CCCCC2)c([N+](=O)[O-])cc1OC`, the inhibition is inactive: -3.56%.

Turning to `COc1ccc(Br)c(C(=O)NCC2(N3CCCCC3)CCCCC2)c1`, the inhibition was inactive: -4.38%.

In the case of `CN(C)c1cccc(C(=O)NCC2(N(C)C)CCCCC2)c1`, the inhibition was inactive: 2.49%.

For `CC(C)Oc1ccc(C(=O)NCC2(N(C)C)CCCCC2)cc1`, the inhibition was inactive: 7.2%.

On to `O=C(OC1CN2CCC1CC2)C(CO)(c1ccccc1)c1ccccc1` (centres undefined), for which the inhibition was inactive: -1.4%.
